Rango complex inh – Rango-importin beta binding inhibition | Q14974 | Rango CFP/YFP FRET sensor + importin beta, 45 min | Potency, µM (highest dose often 92.2 µM), for inactives: at the highest dose inhibition of complex formation | actives 0.031% (n = 340,000);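 further: potency means the concentration at half of the fitted maximal effect; 0% = DMSO wells and 100% = buffer wells lacking importin beta; nearly all actives have a fitted effect of over 15% in size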
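FRET biosensor Rango (snurportin 1 IBB between N-terminal EYFP and C-terminal Cerulean), 50 nM in PBS/1 mM DTT/0.02% Tween-20/0.1% BSA, preincubated 5 min RT with compound; 0.125 microM importin beta added, 45 min RT, CFP/YFP FRET ratio read.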
Rango release inh – inhibitors of RanGTP-induced Rango-importin beta complex dissociation | Potency, µM (series often up to 46.1 µM), without a hit: at the top dose activity change, negative = inhibition | AID 540253 | O95149+P62826 | actives 0.071% (n = 340,000) | Biochemical FRET Rango-importin beta, RanGTP-induced dissociation; further: potency means the concentration at half of the fitted maximal effect; % of control where 0% means no effect; nearly all actives have a fitted effect of over 45% in size
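Compounds preincubate 5 min with complex of recombinant Rango and importin beta in PBS with 1 mM DTT. Ran (0.6 uM) loaded with 2 mM GTP plus 0.2 uM RCC1 starts dissociation; FRET is recorded 45 min later.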
KCNH2 3.1 inh – blocks the human KCNH2 3.1 channel isoform | U2OS KCNH2 3.1, thallium flux FluxOr; hits give low values | activity change, % (tested at about 1.8 µM) | actives 0.95% (n = 340,000);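 active means maximum activity change below -70%; inconclusive means maximum activity change from -70% to -50%; inactive means maximum activity change above -50%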;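 further: thallium influx rate constant from kinetic fluorescence after stimulation buffer; on the % scale 0 is the no-effect control and ±100 the full control effect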
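Thallium flux via FluxOr fluorescence (Red40 quencher, 45 min loading) in U2OS cells virally expressing the KCNH2 3.1 isoform (1.77 x 10^8 /mL virus, overnight at 37 C). Rate constants from 2-min kinetic reads post-stimulation, normalised to positive and negative controls.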
hERG WT inh – blocks the wildtype human KCNH2 potassium channel; U2OS, BacMam KCNH2, thallium flux FluxOr; hits give low values; activity change, % at 1.84 µM; Q12809; actives 0.37% (n = 340,000);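 active means maximum activity change below -70%; inconclusive means maximum activity change between -70% and -50%; inactive means maximum activity change above -50%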; further: on the % scale 0 is the no-effect control and ±100 the full control effect
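U2OS cells transduced with wild-type KCNH2 virus are loaded with FluxOr dye for 45 min, and thallium flux is measured in kinetic reads before and after stimulation buffer. Rate constants are normalized to DMSO controls.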
* marks the source's active call; other numbers are inactive results; i = inactive; u = inconclusive; x = no result given; ! = repeats disagree. In the library only some 1.3% were active in any assay of this set; here they are far more common. Unless noted, the call rests on the fitted dose curve.

| nr | mol | Rango complex inh | Rango release inh |
| --- | --- | --- | --- |
| 1 | COC(=O)C1=C(c2ccc(F)cc2OCc2ccccc2)C[C@@H]2CC[C@H]1N2C(=O)NCc1ccc(N(C)C)cc1 | 5% | -4% |
| 2 | COC(=O)C1=C(c2ccc(F)cc2OCc2ccccc2)C[C@@H]2CC[C@H]1N2C(=O)NCCOc1ccc(OC)cc1 | -2% | 1% |
| 3 | CCOc1ccccc1N=Cc1c(O)n(C)c(=O)n(C)c1=O | -1% | u |
| 4 | CCN1/C(=C\C=C\C2=[N+](CC)c3ccccc3C2(C)C)C(C)(C)c2ccccc21 | u | -20% |
| 5 | COc1ccc(/C=C2/C(=O)N(Cc3ccco3)C(=O)N(C(C)C)C2=O)cc1 | u | -26% |
| 6 | CC(C)CS(=O)(=O)C1=NN2C(=N)/C(=C\c3ccc(OC(=O)c4ccco4)cc3)C(=O)N=C2S1 | u | 26µM* |
| 7 | C[C@H]1O[C@H]1P(=O)(O)O | 3% | -6% |
| 8 | C=CCn1c(O)c(C(C)=NCCN2CCN(C(=S)NC)CC2)c(=O)[nH]c1=O | -1% | 0% |

| nr | KCNH2 3.1 inh | hERG WT inh |
| --- | --- | --- |
| 1 | -29 | -11 |
| 2 | -87* | 2 |
| 3 | -2 | 3 |
| 4 | u | -208* |
| 5 | 2 | -17 |
| 6 | 2 | 28 |
| 7 | -12 | -4 |
| 8 | -10 | -99* |

(listing goes on)
| nr | mol | Rango complex inh | Rango release inh |
| --- | --- | --- | --- |
| 9 | C=CCn1c(O)c(C(C)=NCCN2CCOCC2)c(=O)[nH]c1=O | -1% | 3% |
| 10 | COP(=O)(OC)c1nc(-c2ccc([N+](=O)[O-])cc2)oc1N1CCCCC1 | 29µM* | 5% |
| 11 | Cc1c(S(=O)(=O)Nc2cccc(Cl)c2)c(=O)n(C)c(=O)n1C | u | 11% |
| 12 | Cc1nn(-c2ccccc2)c2c1P(=O)(O)/C(=C1\N(C)c3ccccc3C1(C)C)C=N2 | u | u |
| 13 | O=C(O)CCCCC1SCC2NC(=O)NC21 (stereo not drawn) | u | -4% |
| 14 | CNCC(C)c1ccccc1 (stereo not drawn) | 1% | 12% |
| 15 | CNCC[C@@H](Oc1ccc(C(F)(F)F)cc1)c1ccccc1 | 1% | 3% |
| 16 | CC12CCC3c4ccc(OC(=O)N(CCCl)CCCl)cc4CCC3C1CCC2O (stereo not drawn) | 1% | -3% |

| nr | KCNH2 3.1 inh | hERG WT inh |
| --- | --- | --- |
| 9 | 32 | 1 |
| 10 | 12 | 2 |
| 11 | -9 | -11 |
| 12 | -6 | -3 |
| 13 | -3 | 5 |
| 14 | 4 | i |
| 15 | -92* | x |
| 16 | -89* | 34 |

Molecules shown so far with fluorine, in the order listed:
| nr | mol | Rango complex inh | Rango release inh |
| --- | --- | --- | --- |
| 1 | COC(=O)C1=C(c2ccc(F)cc2OCc2ccccc2)C[C@@H]2CC[C@H]1N2C(=O)NCc1ccc(N(C)C)cc1 | 5% | -4% |
| 2 | COC(=O)C1=C(c2ccc(F)cc2OCc2ccccc2)C[C@@H]2CC[C@H]1N2C(=O)NCCOc1ccc(OC)cc1 | -2% | 1% |
| 15 | CNCC[C@@H](Oc1ccc(C(F)(F)F)cc1)c1ccccc1 | 1% | 3% |

| nr | KCNH2 3.1 inh | hERG WT inh |
| --- | --- | --- |
| 1 | -29 | -11 |
| 2 | -87* | 2 |
| 15 | -92* | x |

Next section:
| nr | mol | Rango complex inh | Rango release inh |
| --- | --- | --- | --- |
| 17 | CCCCCCCCCCCCCCCC[n+]1ccccc1 | 65µM*! | u |
| 18 | O=C(CNC(=O)c1ccccc1)Nc1ccc(Br)cc1C(=O)c1ccccc1 | 5% | 7% |
| 19 | CN1CCN(CC(=O)Nc2ccc(Cl)cc2C(=O)c2ccccc2)CC1 | 0% | 1% |
| 20 | CCN(CC)CC(=O)Nc1ccc(Cl)cc1C(=O)c1ccccc1 | 0% | -11% |
| 21 | O=C(CN1CCN(CCO)CC1)Nc1ccc(Cl)cc1C(=O)c1ccccc1 | -2% | -2% |
| 22 | O=C(CN1CCCCC1)NCC(=O)Nc1ccc(Br)cc1C(=O)c1ccccc1 | -5% | 26% |
| 23 | CCOc1ccc(/C=C/C(=O)C(C(N)=O)=C2SCCS2)cc1 | u | u |
| 24 | COC(=O)C1=C(c2ccc(C(C)=O)cc2)C[C@@H]2CC[C@H]1N2C(=O)N1CCC(C)CC1 | -6% | 0% |

| nr | KCNH2 3.1 inh | hERG WT inh |
| --- | --- | --- |
| 17 | x | x |
| 18 | 12 | -9 |
| 19 | -78* | u |
| 20 | 13 | 3 |
| 21 | -87* | -23 |
| 22 | -78* | -36 |
| 23 | -29 | 0 |
| 24 | 9 | 15 |

Later entries.
| nr | mol | Rango complex inh | Rango release inh |
| --- | --- | --- | --- |
| 25 | COC(=O)C1=C(c2ccc(C(C)=O)cc2)C[C@@H]2CC[C@H]1N2C(=O)N1CCC(O)(c2ccc(Cl)cc2)CC1 | 1% | 6% |
| 26 | C=CCc1c(C)nc(C)nc1N/N=C/c1ccc(N(C)C)cc1 | u | 25% |
| 27 | CCOC(=O)[C@]12Cc3cc(C)ccc3[C@H]1N(Cc1ccccc1)C(=O)c1ccccc12 | -3% | 4% |
| 28 | Cc1cc(C(=O)Nc2ccc(CC(=O)O)cc2)c(C)o1 | 0% | u |
| 29 | COc1ccc2c(c1)CC1(CN2C)C(=O)NC(=O)N(CCc2ccccc2)C1=O (stereo not drawn) | u | u |
| 30 | O=c1[nH]c(=S)n(-c2cccc(Cl)c2)c(O)c1/C=N/N1CCOCC1 | u | u |
| 31 | CCS(=O)(=O)Nc1ccc(C2=NN(C(=O)c3ccco3)C(c3ccc(Cl)o3)C2)cc1 (stereo not drawn) | u | 22% |
| 32 | COc1ccccc1N1CCN(CCc2ccccc2)CC1 | -1% | 0% |

| nr | KCNH2 3.1 inh | hERG WT inh |
| --- | --- | --- |
| 25 | -88* | -115* |
| 26 | 9 | 1 |
| 27 | -72* | -3 |
| 28 | 12 | 3 |
| 29 | -95* | 1 |
| 30 | -28 | 4 |
| 31 | -7 | 17 |
| 32 | -7 | 8 |

Following part:
| nr | mol | Rango complex inh | Rango release inh |
| --- | --- | --- | --- |
| 33 | Cc1cccc(N2CCN(CCc3ccccc3)CC2)c1C | 3% | -9% |
| 34 | O=C(CCCN1CCC2(CC1)C(=O)NCN2c1ccccc1)c1ccc(F)cc1 | 2% | 11% |
| 35 | O=C(c1ccc(F)cc1)C(Cc1ccccc1)N1CCCCC1 (stereo not drawn) | 0% | 15% |
| 36 | CCc1ccc2c(c1)Sc1ccccc1CC2N1CCN(C)CC1 (stereo not drawn) | 3% | 25% |
| 37 | Brc1ccc(Oc2ccc(Br)cc2Br)c(Br)c1 | -1% | 26µM* |
| 38 | COc1cc(/C=N/NC(=O)c2cnccn2)cc(OC)c1OC | 4% | 25% |
| 39 | CC1=C/C(=N\NC(=S)NCCc2ccccc2)CC(C)(C)C1 | u | 6% |

| nr | KCNH2 3.1 inh | hERG WT inh |
| --- | --- | --- |
| 33 | -82* | -48 |
| 34 | -81* | -38 |
| 35 | -12 | -1 |
| 36 | -96* | u |
| 37 | -1 | -10 |
| 38 | -6 | -4 |
| 39 | -1 | 3 |

Source: PubChem BioAssay
